Laboratory results reported in patent publication US20140363454A1, “Antibody-Drug Conjugates, Compositions and Methods of Use” (Igenica Biotherapeutics, Inc., priority 2013, published 2014).

Experiments:
[1] = tested on: BT474 cell xenograft; conditions: C.B-17 scid mice, once intravenously 1 mg/Kg
[2] = tested on: BT474 (HER2+ human breast carcinoma) cells; test: Cell proliferation assay (ATPLite), BT474 cells; format: cell-based; conditions: 3 days, ATP readout

trastuzumab-dTSPEG-MMAF
TGI (tumor growth inhibition) [1]: comparable TGI to than the comparator ADCs
toxicity based on animal weight measurements [1]: No toxicity was observed
potency for inhibition of tumor cell growth [2]: approximately equipotent and considerably more potent than the parent trastuzumab antibody

trastuzumab-MC-T4
TGI (tumor growth inhibition) [1]: significant TGI compared to the control
toxicity based on animal weight measurements [1]: No toxicity was observed
potency for inhibition of tumor cell growth [2]: approximately equipotent and considerably more potent than the parent trastuzumab antibody

trastuzumab-dTSPEG-T4
TGI (tumor growth inhibition) [1]: comparable TGI to than the comparator ADCs
toxicity based on animal weight measurements [1]: No toxicity was observed
potency for inhibition of tumor cell growth [2]: approximately equipotent and considerably more potent than the parent trastuzumab antibody
